How the values were obtained:
human SSTR3 [1] = biological target: T1, human SSTR3 (Homo sapiens (Human), UniProt P32745); test: SSTR binding filtration assay (SSTR3); conditions: read-out: Human SSTR3 Filtration Assay Ki; (3-125I-Tyr11)-SRIF-14 radioligand, CHO-K1 membranes; more active isomer
Method: The receptor-ligand binding assays of all 5 subtype of SSTRs were performed with membranes isolated from Chinese hamster ovary (CHO)-K1 cells stably expressing the cloned human somatostatin receptors in 96-well format as previous reported. (Yang et al. PNAS 95:10836-10841, 1998, Birzin et al. Anal. Biochem. 307:159-166, 2002.) The stable cell lines for SSTR1-SSTR5 were developed by stably transfecting with DNA for all five SSTRs using Lipofectamine. Neomycin-resistant clones were selected and maintained in medium containing 400 μg/mL G418 (Rohrer et al. Science 282:737-740, 1998).
Binding assays were performed using (3-^125I-Tyr11)-SRIF-14 as the radioligand (used at 0.1 nM) and The Packard Unifilter assay plate. The assay buffer consisted of 50 mM TrisHCl (pH 7.8) with 1 mM EGTA, 5 mM MgCl2, leupeptin (10 μg/mL), pepstatin (10 μg/mL), bacitracin (200 μg/mL), and aprotinin (0.5 μg/mL). CHO-K1 cell membranes, radiolabeled somatostatin, and unlabeled test compounds were resuspended or diluted in this assay buffer. Unlabeled test compounds were examined over a range of concentrations from 0.01 nM to 10,000 nM. The Ki values for compounds were determined as described by Cheng and Prusoff Biochem Pharmacol. 22:3099-3108 (1973).

The chains behind the UniProt entries cited, without tags or fusion partners.
UniProt P32745, whole entry: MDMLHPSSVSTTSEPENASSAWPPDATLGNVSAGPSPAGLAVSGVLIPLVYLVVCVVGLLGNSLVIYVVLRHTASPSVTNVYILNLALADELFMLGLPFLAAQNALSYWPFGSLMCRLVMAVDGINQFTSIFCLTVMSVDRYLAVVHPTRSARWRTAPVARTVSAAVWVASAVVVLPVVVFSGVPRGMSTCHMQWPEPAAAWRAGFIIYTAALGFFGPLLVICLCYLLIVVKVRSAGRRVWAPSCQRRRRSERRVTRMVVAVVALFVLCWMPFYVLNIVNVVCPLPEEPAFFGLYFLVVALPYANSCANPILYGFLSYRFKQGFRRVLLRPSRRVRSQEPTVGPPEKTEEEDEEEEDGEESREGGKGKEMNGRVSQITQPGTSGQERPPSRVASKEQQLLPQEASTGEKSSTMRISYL
UniProt Q12809, whole entry: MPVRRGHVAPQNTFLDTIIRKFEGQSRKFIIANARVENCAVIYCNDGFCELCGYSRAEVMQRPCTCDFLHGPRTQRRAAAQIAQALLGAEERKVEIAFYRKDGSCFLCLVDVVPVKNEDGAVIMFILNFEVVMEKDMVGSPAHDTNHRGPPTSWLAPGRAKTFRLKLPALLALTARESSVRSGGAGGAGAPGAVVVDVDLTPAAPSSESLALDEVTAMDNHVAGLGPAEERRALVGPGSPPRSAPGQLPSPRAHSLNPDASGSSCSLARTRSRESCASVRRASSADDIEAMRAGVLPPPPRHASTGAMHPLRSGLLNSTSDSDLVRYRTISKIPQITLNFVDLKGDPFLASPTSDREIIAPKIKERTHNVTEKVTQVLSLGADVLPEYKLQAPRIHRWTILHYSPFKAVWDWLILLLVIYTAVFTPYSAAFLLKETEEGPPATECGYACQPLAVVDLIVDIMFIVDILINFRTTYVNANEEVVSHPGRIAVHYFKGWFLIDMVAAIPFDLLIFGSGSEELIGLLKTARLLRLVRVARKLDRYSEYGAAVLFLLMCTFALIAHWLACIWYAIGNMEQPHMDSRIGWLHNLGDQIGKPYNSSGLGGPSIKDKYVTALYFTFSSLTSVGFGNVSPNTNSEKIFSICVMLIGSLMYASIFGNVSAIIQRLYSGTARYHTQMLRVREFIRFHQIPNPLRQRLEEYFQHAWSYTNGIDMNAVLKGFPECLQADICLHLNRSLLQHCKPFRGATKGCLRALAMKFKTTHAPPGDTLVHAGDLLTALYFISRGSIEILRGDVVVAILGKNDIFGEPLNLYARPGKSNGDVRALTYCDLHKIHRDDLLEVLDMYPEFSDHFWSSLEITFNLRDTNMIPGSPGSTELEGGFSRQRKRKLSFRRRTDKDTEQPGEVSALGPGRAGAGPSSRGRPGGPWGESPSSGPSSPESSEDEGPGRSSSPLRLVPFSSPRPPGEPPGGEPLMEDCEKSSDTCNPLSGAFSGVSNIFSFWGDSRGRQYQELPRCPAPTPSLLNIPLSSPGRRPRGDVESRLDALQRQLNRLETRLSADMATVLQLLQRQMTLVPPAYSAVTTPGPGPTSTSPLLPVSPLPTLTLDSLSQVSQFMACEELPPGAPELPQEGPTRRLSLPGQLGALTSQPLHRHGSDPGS

human SSTR3 [2] = biological target: T1, human SSTR3; test: SSTR3 functional antagonist assay (cAMP, FSK + SS-14, CHO cells); conditions: read-out: Human SSTR3 Antagonist EC50; 3.5 μM FSK + 100 nM SS-14; more active isomer
Method: The effects of compounds that bind to human and murine SSTR3 with various affinities on the functional activity of the receptor were assessed by measuring cAMP production in the presence of Forskolin (FSK) along or FSK plus SS-14 in SSTR3 expressing CHO cells. FSK acts to induce cAMP production in these cells by activating adenylate cyclases, whereas SS-14 suppresses cAMP production in the SSTR3 stable cells by binding to SSTR3 and the subsequent inhibition of adenylate cyclases via an alpha subunit of GTP-binding protein (Gαi).
To measure the antagonism activity of the compounds, we pre-incubated the human or mouse SSTR3 stable CHO cells with the compounds for 15 rain, followed by a one-hour incubation of the cells with a mixture of 3.5 μM FSK+100 nM SS-14 (in the continuous presence of the compounds). The amount of cAMP produced during the incubation was also quantified with the Lance cAMP assay. The antagonism activity of each compound was reflected both by % Inhibition (its maximum ability to block the action of SS-14) and an EC50 value which is the concentration of the test compound required to suppress the effect of 100 nM SS-14 by 50%. The % Inhibition of each compound was calculated using the following formula: % Inhibition=[1−(unknown cAMP/FSK+SS-14 cAMP)]×100

[3] = biological target: hERG potassium ion channel (Homo sapiens (Human), UniProt Q12809)
human SSTR3 [4] = biological target: T1, human SSTR3; test: SSTR3 binding Scintillation Proximity Assay (SPA); conditions: read-out: Human SSTR3 SPA Assay IC50; 125I-SS14 radioligand, CHO-K1 membranes; more active isomer
Method: The receptor-ligand binding Scintillation Proximity Assay (SPA) (N. D. Cook. Drug Discovery Today 1 (1996), pp. 287-294) for SSTR3 was performed with membranes isolated from Chinese hamster ovary (CHO)-K1 cells stably expressing the cloned human somatostatin receptors. Binding assays were performed in 384 well format using ^125I-SS14 as the radioligand for SSTR3. The assay buffer consisted of 50 mM TrisHCl (pH 7.8) with 1 mM EGTA, 5 mM MgCl2, leupeptin (10 μg/mL), pepstatin (10 μg/mL), bacitracin (200 μg/mL), and aprotinin (0.5 μg/mL). CHO-K1 cell membranes were prebound to SPA beads and incubated with unlabelled test compounds and radiolabeled somatostatin in assay buffer. After 5 hours at room temperature, cpm/well was determined. Test compounds were examined in 10 point titrations over a range of concentrations from 0.00001 nM to 1200 nM. Percent inhibition was determined for each data point using binding in the presence of DMSO as the maximum achievable value. The results were plotted using 4 parameter fit and the inflection point reflecting 50% of the maximum inhibition was reported as the IC50.

## CCOC[C@@]1(c2nnc(C)o2)N[C@@H](c2nc(-c3ccc(F)c(C)n3)c[nH]2)Cc2c1[nH]c1ccccc21
Human SSTR3 [1]
  Ki: 0.7 nM
Human SSTR3 [2]
  EC50: 2.2 nM
[3]
  IC50: 20.1 µM
Human SSTR3 [4]
  IC50: 2.6 nM

## CCOC[C@]1(c2nnc(C)o2)N[C@@H](c2nc(-c3ccc(F)c(C)n3)c[nH]2)Cc2c1[nH]c1ccccc21
Human SSTR3 [1]
  Ki: 6.4 nM
Human SSTR3 [2]
  EC50: 45.8 nM
[3]
  IC50: 18.1 µM
Human SSTR3 [4]
  IC50: 43.8 nM

Reference: patent US8754099B2, “Oxadiazole beta carboline derivatives as antidiabetic compounds” (Merck Sharp & Dohme Corp, priority 2010, dated 2014)
